# Source: patent publication US8686130B2, “Artificial fluorescent bases” (Riken, priority 2009, dated 2014)
# Assay: Fluorescence of ribonucleoside 5′-triphosphates and shRNAs excited at 365 nm (dot blot on nylon membrane, LAS 4000)
# Conditions: excited with light of 365 nm
compound,measurement,value
Nc1nc(-c2ccc(-c3cccs3)s2)c2ncn([C@@H]3O[C@H](COP(=O)(O)OP(=O)(O)OP(=O)(O)O)[C@@H](O)[C@H]3O)c2n1 [ssTP],Fluorescence intensity at the maximum wavelength (rank order),DssTP>ssTP>sTP
same,Maximum wavelength of fluorescence,468 nm
